Assay in all cases: biochemical
Common to all, as to conditions: read-out: Percent Control

By UniProt entry, the sequences of proteins in these tests, tags left out. Where a name states a change or a piece, a line headed by the entry shows the natural chain unless it says otherwise. Residues count along the entry.
UniProt Q13557, whole entry: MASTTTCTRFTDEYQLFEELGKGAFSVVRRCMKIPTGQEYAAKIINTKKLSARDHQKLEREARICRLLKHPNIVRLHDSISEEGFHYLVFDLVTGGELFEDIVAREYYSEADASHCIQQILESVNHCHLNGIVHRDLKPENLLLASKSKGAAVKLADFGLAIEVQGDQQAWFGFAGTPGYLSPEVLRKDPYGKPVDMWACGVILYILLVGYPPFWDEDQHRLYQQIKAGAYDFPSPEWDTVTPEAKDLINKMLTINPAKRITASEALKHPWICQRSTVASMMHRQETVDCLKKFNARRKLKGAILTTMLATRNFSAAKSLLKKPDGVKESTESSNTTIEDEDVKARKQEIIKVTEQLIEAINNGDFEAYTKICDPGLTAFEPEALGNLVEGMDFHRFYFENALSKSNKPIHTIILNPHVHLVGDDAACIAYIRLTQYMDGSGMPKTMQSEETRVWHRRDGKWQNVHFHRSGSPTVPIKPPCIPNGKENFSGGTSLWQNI
UniProt P29323, 19-1055: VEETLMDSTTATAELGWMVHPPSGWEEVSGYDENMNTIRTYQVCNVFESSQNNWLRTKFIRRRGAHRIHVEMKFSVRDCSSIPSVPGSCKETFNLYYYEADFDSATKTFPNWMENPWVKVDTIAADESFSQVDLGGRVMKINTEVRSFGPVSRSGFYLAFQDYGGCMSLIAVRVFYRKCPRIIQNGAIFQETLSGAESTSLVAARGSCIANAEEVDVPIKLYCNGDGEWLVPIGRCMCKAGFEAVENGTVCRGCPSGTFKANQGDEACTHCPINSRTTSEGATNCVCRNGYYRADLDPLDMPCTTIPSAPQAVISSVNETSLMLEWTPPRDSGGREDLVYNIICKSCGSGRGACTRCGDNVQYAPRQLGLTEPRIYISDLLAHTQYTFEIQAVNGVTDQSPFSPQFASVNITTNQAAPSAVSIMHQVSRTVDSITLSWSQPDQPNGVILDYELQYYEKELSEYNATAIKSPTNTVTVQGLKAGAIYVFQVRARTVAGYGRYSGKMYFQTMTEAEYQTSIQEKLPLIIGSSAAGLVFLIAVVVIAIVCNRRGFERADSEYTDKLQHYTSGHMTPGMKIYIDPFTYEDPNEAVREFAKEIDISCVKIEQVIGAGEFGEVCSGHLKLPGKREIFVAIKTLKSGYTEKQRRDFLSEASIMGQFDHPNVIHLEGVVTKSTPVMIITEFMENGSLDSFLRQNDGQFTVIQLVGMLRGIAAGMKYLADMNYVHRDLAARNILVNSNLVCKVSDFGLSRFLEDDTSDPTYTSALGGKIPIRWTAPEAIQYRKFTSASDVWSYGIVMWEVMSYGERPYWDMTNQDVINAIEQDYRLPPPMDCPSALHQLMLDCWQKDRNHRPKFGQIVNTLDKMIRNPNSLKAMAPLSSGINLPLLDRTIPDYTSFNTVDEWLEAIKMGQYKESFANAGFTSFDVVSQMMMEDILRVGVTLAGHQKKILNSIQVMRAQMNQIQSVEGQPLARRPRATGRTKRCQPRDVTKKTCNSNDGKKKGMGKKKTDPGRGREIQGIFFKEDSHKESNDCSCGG
UniProt Q13164: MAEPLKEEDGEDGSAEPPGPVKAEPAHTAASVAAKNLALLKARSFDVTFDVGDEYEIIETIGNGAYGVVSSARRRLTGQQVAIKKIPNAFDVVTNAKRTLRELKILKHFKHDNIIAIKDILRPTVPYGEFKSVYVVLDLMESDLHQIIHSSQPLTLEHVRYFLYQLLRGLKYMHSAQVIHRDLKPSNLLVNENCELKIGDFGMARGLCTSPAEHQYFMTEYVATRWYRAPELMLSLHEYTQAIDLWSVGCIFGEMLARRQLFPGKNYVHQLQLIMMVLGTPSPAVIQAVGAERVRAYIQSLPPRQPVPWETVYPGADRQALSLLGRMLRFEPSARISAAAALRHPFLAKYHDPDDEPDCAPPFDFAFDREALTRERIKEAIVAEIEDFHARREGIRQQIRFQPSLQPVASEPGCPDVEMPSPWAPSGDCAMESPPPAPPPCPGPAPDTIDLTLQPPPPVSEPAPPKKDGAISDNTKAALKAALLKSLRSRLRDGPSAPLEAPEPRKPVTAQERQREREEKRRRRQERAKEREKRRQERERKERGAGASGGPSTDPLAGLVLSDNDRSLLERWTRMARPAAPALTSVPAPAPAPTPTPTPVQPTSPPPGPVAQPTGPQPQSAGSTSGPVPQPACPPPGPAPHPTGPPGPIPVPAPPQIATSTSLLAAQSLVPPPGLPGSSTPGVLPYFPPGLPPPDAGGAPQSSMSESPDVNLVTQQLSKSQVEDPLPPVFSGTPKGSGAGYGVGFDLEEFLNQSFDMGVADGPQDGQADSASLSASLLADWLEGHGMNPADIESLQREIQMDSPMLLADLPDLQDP
UniProt O14976: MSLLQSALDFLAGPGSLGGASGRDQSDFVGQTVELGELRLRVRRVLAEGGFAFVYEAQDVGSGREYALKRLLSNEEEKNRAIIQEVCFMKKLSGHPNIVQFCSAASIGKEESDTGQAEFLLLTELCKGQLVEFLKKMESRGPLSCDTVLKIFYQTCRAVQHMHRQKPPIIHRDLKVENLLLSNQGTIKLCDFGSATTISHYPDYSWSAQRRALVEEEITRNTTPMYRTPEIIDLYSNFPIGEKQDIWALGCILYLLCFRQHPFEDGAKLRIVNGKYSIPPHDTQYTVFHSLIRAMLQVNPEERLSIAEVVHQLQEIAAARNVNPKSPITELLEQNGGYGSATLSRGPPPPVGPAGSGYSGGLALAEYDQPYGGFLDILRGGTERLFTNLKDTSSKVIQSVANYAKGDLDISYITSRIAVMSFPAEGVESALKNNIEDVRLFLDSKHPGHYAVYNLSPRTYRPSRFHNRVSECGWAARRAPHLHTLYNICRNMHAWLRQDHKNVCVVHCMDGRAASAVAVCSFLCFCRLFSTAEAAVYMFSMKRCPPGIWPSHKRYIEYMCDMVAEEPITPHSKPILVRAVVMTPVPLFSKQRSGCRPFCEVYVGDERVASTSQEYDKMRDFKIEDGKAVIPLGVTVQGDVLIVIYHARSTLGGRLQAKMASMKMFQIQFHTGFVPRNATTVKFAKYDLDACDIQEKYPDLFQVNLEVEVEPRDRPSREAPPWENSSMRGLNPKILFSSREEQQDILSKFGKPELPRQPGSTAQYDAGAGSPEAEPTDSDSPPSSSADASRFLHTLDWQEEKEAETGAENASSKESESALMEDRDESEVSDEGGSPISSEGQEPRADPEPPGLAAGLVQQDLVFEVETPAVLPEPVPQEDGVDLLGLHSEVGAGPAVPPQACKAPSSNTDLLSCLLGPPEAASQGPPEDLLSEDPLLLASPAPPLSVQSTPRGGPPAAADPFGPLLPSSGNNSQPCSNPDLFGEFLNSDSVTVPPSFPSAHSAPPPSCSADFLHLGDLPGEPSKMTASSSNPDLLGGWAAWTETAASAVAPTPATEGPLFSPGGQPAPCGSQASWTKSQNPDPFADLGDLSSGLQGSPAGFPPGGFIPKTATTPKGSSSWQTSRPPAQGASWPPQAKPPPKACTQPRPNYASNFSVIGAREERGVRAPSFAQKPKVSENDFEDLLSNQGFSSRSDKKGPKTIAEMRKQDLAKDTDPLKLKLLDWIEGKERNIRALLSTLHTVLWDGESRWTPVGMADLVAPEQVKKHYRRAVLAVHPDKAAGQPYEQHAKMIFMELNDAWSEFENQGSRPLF
UniProt P35626: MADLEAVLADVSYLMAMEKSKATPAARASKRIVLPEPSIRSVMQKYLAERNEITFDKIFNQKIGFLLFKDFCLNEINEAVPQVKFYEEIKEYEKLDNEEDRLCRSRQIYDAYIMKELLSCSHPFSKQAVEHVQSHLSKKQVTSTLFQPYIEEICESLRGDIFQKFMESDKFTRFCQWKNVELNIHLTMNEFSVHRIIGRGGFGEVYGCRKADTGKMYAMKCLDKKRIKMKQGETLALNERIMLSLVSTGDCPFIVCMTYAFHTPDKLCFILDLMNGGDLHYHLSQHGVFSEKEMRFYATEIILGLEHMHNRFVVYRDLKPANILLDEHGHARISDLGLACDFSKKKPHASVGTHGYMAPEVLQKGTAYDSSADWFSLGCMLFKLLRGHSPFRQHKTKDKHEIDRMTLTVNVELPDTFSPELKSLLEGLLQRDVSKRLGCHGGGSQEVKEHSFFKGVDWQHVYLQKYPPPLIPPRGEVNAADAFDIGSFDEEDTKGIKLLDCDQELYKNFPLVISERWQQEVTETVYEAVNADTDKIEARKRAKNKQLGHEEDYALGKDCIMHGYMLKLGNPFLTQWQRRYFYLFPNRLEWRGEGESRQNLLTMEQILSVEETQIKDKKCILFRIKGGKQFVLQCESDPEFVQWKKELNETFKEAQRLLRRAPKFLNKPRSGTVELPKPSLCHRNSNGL
UniProt Q9UK32, 426-683 limits assumed: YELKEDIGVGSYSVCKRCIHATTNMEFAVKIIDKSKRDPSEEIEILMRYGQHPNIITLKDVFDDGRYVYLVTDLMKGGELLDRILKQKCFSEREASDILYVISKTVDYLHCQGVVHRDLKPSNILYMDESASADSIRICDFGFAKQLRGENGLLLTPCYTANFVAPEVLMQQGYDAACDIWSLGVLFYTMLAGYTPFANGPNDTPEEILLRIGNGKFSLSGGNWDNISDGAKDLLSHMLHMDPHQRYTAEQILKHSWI
UniProt Q9UPE1, whole entry: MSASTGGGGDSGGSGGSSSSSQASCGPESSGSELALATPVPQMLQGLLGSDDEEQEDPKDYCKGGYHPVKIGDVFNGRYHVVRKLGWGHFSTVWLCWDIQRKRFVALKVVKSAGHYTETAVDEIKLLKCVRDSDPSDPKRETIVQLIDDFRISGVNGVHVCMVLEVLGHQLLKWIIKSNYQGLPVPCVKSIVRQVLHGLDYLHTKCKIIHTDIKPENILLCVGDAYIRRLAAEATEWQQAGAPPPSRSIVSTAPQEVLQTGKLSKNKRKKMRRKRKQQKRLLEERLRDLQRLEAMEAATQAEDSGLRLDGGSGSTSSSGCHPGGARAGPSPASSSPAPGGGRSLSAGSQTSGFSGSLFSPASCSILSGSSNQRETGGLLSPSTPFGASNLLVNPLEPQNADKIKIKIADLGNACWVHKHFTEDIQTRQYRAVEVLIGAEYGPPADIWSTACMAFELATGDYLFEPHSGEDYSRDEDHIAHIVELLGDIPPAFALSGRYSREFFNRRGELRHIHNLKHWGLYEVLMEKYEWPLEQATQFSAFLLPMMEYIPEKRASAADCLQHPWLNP
UniProt Q02763, 23-1124: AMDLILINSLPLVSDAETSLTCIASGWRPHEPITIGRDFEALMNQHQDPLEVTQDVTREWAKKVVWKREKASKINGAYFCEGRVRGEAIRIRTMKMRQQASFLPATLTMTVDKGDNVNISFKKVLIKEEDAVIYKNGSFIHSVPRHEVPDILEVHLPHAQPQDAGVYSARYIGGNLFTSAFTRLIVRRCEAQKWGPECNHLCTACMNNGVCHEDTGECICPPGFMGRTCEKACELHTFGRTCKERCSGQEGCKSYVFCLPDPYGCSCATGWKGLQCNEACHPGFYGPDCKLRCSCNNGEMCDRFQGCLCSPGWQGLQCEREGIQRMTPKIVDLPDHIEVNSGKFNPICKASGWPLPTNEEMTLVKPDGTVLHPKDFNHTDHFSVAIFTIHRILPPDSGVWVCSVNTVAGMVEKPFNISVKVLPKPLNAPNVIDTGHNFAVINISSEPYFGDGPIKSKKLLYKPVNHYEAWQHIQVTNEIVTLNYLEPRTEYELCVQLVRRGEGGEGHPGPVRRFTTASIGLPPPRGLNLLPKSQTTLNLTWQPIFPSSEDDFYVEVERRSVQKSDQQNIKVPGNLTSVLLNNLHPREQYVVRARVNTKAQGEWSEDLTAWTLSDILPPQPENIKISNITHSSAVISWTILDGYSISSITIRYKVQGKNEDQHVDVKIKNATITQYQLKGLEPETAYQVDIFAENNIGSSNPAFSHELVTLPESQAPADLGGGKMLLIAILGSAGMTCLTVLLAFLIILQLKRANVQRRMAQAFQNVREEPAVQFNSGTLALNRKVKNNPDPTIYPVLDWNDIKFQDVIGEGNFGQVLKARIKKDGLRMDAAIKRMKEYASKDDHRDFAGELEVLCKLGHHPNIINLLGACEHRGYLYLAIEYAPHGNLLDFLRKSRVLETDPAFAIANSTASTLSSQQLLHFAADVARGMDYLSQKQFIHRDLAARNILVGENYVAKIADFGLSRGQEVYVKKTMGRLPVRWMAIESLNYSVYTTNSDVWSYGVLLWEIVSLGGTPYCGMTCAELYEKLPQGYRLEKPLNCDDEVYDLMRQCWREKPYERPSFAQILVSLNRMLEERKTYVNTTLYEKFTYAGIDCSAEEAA

The target of test [1] is CAMK2D (Homo sapiens, UniProt Q13557).
For test [2], the target named is CDK8 (Homo sapiens, UniProt P49336).
In test [3] the target is EPHB2 (Homo sapiens, UniProt P29323).
Test [4] concerns the target ERK5 (Homo sapiens, UniProt Q13164).
The target in test [5] is GAK (Homo sapiens, UniProt O14976).
In test [6] the target is GRK3 (Homo sapiens, UniProt P35626).
Test [7] has as its target HIPK3 (Homo sapiens, UniProt Q9H422).
Test [8] concerns the target MAP3K1 (Homo sapiens, UniProt Q13233).
The target in test [9] is MAP4K4 (Homo sapiens, UniProt O95819).
Test [10] deals with MET(M1250T) (Homo sapiens, UniProt P08581, M1250T).
Test [11] has as its target RSK4(Kin.Dom.2-C-terminal) (Homo sapiens, UniProt Q9UK32).
The target of test [12] is SRPK3 (Homo sapiens, UniProt Q9UPE1).
For test [13], the target named is TIE2 (Homo sapiens, UniProt Q02763).

As to `COc1cc2c(Nc3ccc(Cl)c(OC)n3)c(C#N)cnc2cc1OCCON1CCN(C)CC1` [16a, 4-((5-Chloro-6-methoxypyridin-2-yl)amino)-6-methoxy-7-(2-((4-methylpiperazin-1-yl)oxy)ethoxy)quinoline-3-carbonitrile], the remaining activity at 1 µM in test [1] was found to be 47%; in test [2], 91%; in test [3], 6.7%; in test [4], 100%; in test [5] it was 3.9%; in test [6] it was 76%. The remaining activity at 1 µM in [7] came out at 90%; in [8], 84%; in [9], 0.9%; in [10] it was 68%; in [11] it was 87%; in [12] it was 95%. For the same molecule, the remaining activity at 1 µM in test [13] amounted to 70%.

(Values after article PMC11472320, “Computationally Driven Discovery of a BCR-ABL1 Kinase Inhibitor with Activity in Multidrug-Resistant Chronic Myeloid Leukemia” (Journal of Medicinal Chemistry, 2024).)
